Assays:
pGREG546 plasmid = assay: Electrophoretic mobility shift assay (EMSA), DNA retention; assay type: binding; conditions: 1μg pGREG546, DNA to peptide charge ratio 1:1 or 1:4, 30 minutes
Source text: To test the ability of the designed peptides to bind nucleic acids, we evaluated by electrophoretic mobility shift assays (EMSAs) the retention of DNA by the designed peptides. Each EMSA was executed with peptide quantities that were multiples of the DNA to peptide charge ratio. A DNA to peptide charge ratio of 1:1 is represented by the number of positive charges of the peptide required to neutralize the negative charges of the DNA backbone. Retention in the gel is an indirect measure of the fraction of positive charges within the peptide participating in binding the DNA molecules. All EMSA assays were performed using the yeast plasmid pGREG546. As negative control, pGREG546 without any peptide was used, and as positive control the known DNA-binding cell penetrating peptide MPG was used. […]
Fig 4 DNA binding. (A) Quantification of DNA retention obtained from three independent electrophoretic mobility shift assays. […]
1μg of pGREG546 plasmid was pre-incubated with the required quantity of each peptide to result in a 1:1 or 1:4 peptide charge to DNA charge ratio. […] DNA affinity was quantified by measuring the mean pixel intensity of the DNA bands with Fiji (http://fiji.sc) and normalizing to the intensity range between an empty spot on the gel and the intensity of the pGREG546 plasmid without any added peptide. […]

BY4741 yeast cells = assay: Internalization assay in yeast, confocal microscopy; assay type: cell-based, Saccharomyces cerevisiae; conditions: TAMRA-labeled versions, 60 μM, BY4741, pictures at 0, 10 and 20 min
Source text: We first evaluated whether the designed peptides retained the activity of the templates. The presence of the NLS sequence may locate peptides in the nuclei of cells; for that to happen first the peptides have to be internalized. […] For yeast cells, confocal microscopy was used to evaluate CPP activity in our peptides (see Fig 2).
Fig 2 Designed peptides internalized into yeast cells. (A-F) Internalization assays in BY4741 yeast cells for peptide controls where Arg and Lys residues were replaced by Glu residues (A-C) and the original peptides (D-F). All peptides were used at 60 μM (final concentration) and labeled with the TAMRA fluorophore (see Table 1 and Materials and Methods for further details).
All 6 fluorogenic peptides (TAMRA-peptides, see Table 1) were prepared to 600μM in water as a 10X stock solution. Although all the peptides were apparently soluble in water, they all formed aggregates under the microscope. […] These samples were observed under a multi-photon confocal microscope (Olympus FV1000) and pictures were recorded at 0, 10 and 20 min after the peptide addition. […] Bright field images were chosen from the in-focus z-stack, whereas TAMRA images denote the average fluorescence across the entire z-stack to obtain the fluorescence inside the entire cell volume. Images were analyzed using Fiji (http://fiji.sc/Downloads#Fiji).

[1] = system: Escherichia coli strain DH5α; assay type: cell-based; conditions: 12 h
[2] = system: pheromone-signaling pathway (Fus1-eGFP) in MATa cells; assay: Pheromone signaling assay, Fus1-GFP expression and shmoo phenotype; assay type: cell-based, Saccharomyces cerevisiae; conditions: BY4741 fus1::eGFP, 60 μM peptide (20 μM for α-factor), 3h
Method: Finally, the activity of the α-factor embedded in the peptides was evaluated by activation of the pheromone-signaling pathway in MATa cells of S. cerevisiae. We monitored the pheromone signaling activity by following the expression of the GFP-labeled Fus1 protein. Fus1 is among the proteins with the highest pheromone-induced expression and is required for cell-cell fusion during mating. […] The observed phenotype was consistent with the activation of signaling showing a mating protrusion, often called “shmoo” as well as the absence of budding due to inhibition of the Cdc28 cyclin [35, 36].
Fig 5 Pheromone activity. The pheromone signaling pathway is confirmed by the expression of Fus1-GFP, characteristic “shmoo” phenotype and the absence of budding observed in differential interference contrast (DIC) bright field. Concentrations were 20 μM for α-factor and 60 μM for all other peptides. The negative control was water without any peptide.
Pheromone signaling induction in Saccharomyces cerevisiae was measured by induction of eGFP fluorescence in a BY4741 strain containing the Fus1-eGFP construct in place of the wild type Fus1 (MATa his3Δ1 leu2Δ0 met15Δ0 ura3Δ0 fus1::eGFP HIS3MX6, obtained from the yeast GFP collection). The BY4741 fus1::eGFP strain was grown overnight in YPD to mid-log phase and diluted to 10^6 cells/mL. […] Images were analyzed using Fiji (www.fiji.sc). […]

[3] = system: Escherichia coli strain DH5α; assay type: cell-based
Source text: If CPP, DNA binding and AMP activities are compatible, the designed peptides should inhibit bacterial growth. Here we exposed E. coli DH5α cells to varying low concentrations of the designed peptides as well as several controls (see Fig 4). […] To test whether α-factor was important for AMP activity we also tested pure α-factor, pure NLS, the optimized NLS fitting CPP rules (NLS-CE) and the Iztli-1 peptide, a previously reported peptide with an embedded α-factor specifically designed to have antibacterial activity. […] A linear trend could be observed between concentration and growth inhibition (regression lines with standard deviations shown in Fig 6). […]
Fig 6 Antibacterial activity. […] The relative area under the growth curve measured the growth inhibition. […]
Escherichia coli strain DH5α was grown for 12 hours to mid-log phase and diluted to 8·10^5 cells/ml by using the reference OD obtained by absorption spectroscopy. […] Growth curves were measured on two 96 well half area plates with two replicates each followed for 24h using a plate reader (Synergy, USA). […]
Using the slope of the linear regressions determined in these experiments, we estimated the minimal inhibitory concentration (MIC) for E. coli of our 3 CPP designed peptides (α-NLS-C, NLS-α-CE and chimera) and tested it experimentally.

For CSCC[C@H](NC(=O)[C@@H]1CCCN1C(=O)[C@H](CCC(N)=O)NC(=O)CNC(=O)[C@@H]1CCCN1C(=O)[C@H](CCCCN)NC(=O)[C@H](CC(C)C)NC(=O)[C@H](CCC(N)=O)NC(=O)[C@H](CC(C)C)NC(=O)[C@H](Cc1c[nH]c2ccccc12)NC(=O)[C@H](Cc1c[nH]cn1)NC(=O)[C@H](Cc1c[nH]c2ccccc12)NC(=O)[C@H](CC(C)C)NC(=O)[C@@H](N)CCCNC(=N)N)C(=O)N[C@@H](Cc1ccc(O)cc1)C(=O)N[C@@H](Cc1c[nH]c2ccccc12)C(=O)N[C@@H](CCCNC(=N)N)C(=O)N[C@@H](CCC(N)=O)C(=O)N1CCC[C@H]1C(=O)N[C@@H](CCCCN)C(=O)N[C@@H](CO)C(=O)N[C@@H](CCCCN)C(=O)N[C@@H](CCCNC(=N)N)C(=O)N[C@@H](CCCCN)C(=O)N[C@H](C(=O)N[C@@H](CCCNC(=N)N)C(=O)N[C@@H](CCCNC(=N)N)C(=O)O)C(C)C [α-NLS-C], the “DNA binding in EMSA, in words” value (pGREG546 plasmid) was “effective DNA-binding activity”, the “internalization into yeast cells” value (BY4741 yeast cells) was “quickly accumulate in the cell membrane and inside the yeast cells” and the “E. coli MIC for 100% inhibition” value [1] was 20 µM. For the same compound, the “pheromone signaling activity (Fus1-GFP expression, phenotype)” value [2] was “significant induction of expression of Fus1-GFP”, the “E. coli MIC for 50% inhibition” value ([3]; DH5α, 24 h) was 8 µM and the “concentration showing partial growth inhibition” value ([3]; E. coli DH5α, peptides 0 to 16 μM) was 2 µM.

Reference: PMC4838304, “Effective Design of Multifunctional Peptides by Combining Compatible Functions” (PLoS Computational Biology, 2016)
